In ChEMBL document CHEMBL4834473, “Novel hydroxybenzylamine-deoxyvasicinone hybrids as anticholinesterase therapeutics for Alzheimer's disease” (Bioorg Med Chem, 2021):

Experiment: Selectivity index, ratio of IC50 for equine serum BChE to IC50 for electric eel AChE

`O=c1c2ccccc2nc2n1CCC2` [DEOXYVASICINONE] showed a Ratio IC50 of 1.04.
